Results published in patent publication US20240076327A1 (priority 2020, published 2024).

What was measured:
[1] = Stability assay pH 9, remaining parent peak by LCMS; conditions: 0 h; aqueous buffer pH 9, 25° C.
[2] = Stability assay pH 9, deamidation by LCMS; type: physicochemical; conditions: aqueous buffer pH 9, 25° C.

Structure (SMILES) | observed overall stability (percentage of remaining parent peak) [1] | observed deamidation (percentage of predicted total possible deamidation) ([2]; 0 h) | observed deamidation (percentage of predicted total possible deamidation) ([2]; 120 h) | observed deamidation (percentage of predicted total possible deamidation) ([2]; 240 h) | observed deamidation (percentage of predicted total possible deamidation) ([2]; 360 h) | observed deamidation (percentage of predicted total possible deamidation) ([2]; 480 h)
CC(C)C[C@@H]1NC(=O)[C@H](CCC(=O)O)NC(=O)[C@H](CC(N)=O)NC(=O)[C@H](CCCNC(=N)N)NC(=O)[C@H](CCC(=O)O)NC(=O)[C@H](CCC(N)=O)NC(=O)[C@H]([C@@H](C)O)NC(=O)[C@@H]2CSSC[C@@H]3NC(=O)[C@@H]4CCCN4C(=O)[C@H](CCC(N)=O)NC(=O)[C@H](CC(=O)O)NC(=O)[C@H](C(C)C)NC(=O)[C@@H]4CCCN4C(=O)[C@H](C(C)C)NC(=O)[C@@H](NC(=O)[C@H](Cc4ccc(O)cc4)NC(=O)[C@H](CCC(N)=O)NC(=O)[C@H](CO)NC(=O)CN)CSSC[C@H](NC(=O)[C@H](CSSC[C@@H](C(=O)N[C@@H](CCCNC(=N)N)C(=O)N[C@@H](C)C(=O)O)NC(=O)[C@H](Cc4ccc(O)cc4)NC(=O)[C@H](Cc4ccc(O)cc4)NC(=O)[C@H](C(C)C)NC(=O)[C@H]([C@@H](C)O)NC(=O)[C@H](Cc4c[nH]cn4)NC(=O)CNC1=O)NC(=O)[C@@H]1CCCN1C(=O)[C@H](CCC(N)=O)NC(=O)[C@H]([C@@H](C)O)NC(=O)[C@H](CC(N)=O)NC(=O)[C@H](CC(C)C)NC(=O)[C@H](CO)NC3=O)C(=O)N[C@@H](CC(=O)O)C(=O)N[C@@H](CC(=O)O)C(=O)N[C@@H](C)C(=O)N[C@@H]([C@@H](C)O)C(=O)N2 | 100% | 0% | 0% | 4% | 9% | 16%
CC[C@H](C)[C@H](NC(=O)[C@H](C)N)C(=O)N[C@H]1CSSC[C@@H]2NC(=O)[C@@H]3CSSC[C@@H](C(=O)N[C@@H](CCCNC(=N)N)C(=O)N[C@@H](CCCCN)C(=O)N[C@@H](CC(=O)O)C(=O)N[C@@H](CCC(=O)O)C(=O)N4CCC[C@H]4C(=O)O)NC(=O)[C@H](Cc4ccc(O)cc4)NC(=O)[C@H](CO)NC(=O)[C@H](C(C)C)NC(=O)CNC(=O)[C@H](CC(C)C)NC(=O)[C@H](CO)NC(=O)[C@H](CCC(=O)O)NC(=O)[C@H](C)NC(=O)[C@H](CCCCN)NC(=O)[C@H](CSSC[C@H](NC(=O)[C@@H]4CCCN4C(=O)[C@H](CCCNC(=N)N)NC(=O)[C@H](CC(=O)O)NC(=O)[C@H](C)NC(=O)CNC(=O)[C@H]([C@@H](C)O)NC1=O)C(=O)N[C@@H](C)C(=O)N[C@@H](C)C(=O)N[C@H]1CSSC[C@H](NC1=O)C(=O)N1CCC[C@H]1C(=O)N3)NC(=O)[C@H](CO)NC(=O)[C@H]([C@@H](C)O)NC(=O)CNC(=O)[C@@H]1CCCN1C2=O | 100% | 0% | 0% | 0% | 0% | 0%
